Each structure is given as a SMILES string. “And” between values parts separate entries of the source, which are not always exact repeats. Equal entries are not always repeated. The entries are a selection whose mix differs from that of the whole data set. Records with an inconclusive call do not appear. Some structures have more than one record in an assay (separate samples or runs), and their calls can disagree. The source made the active and inactive calls. Rule for the calls, unless noted: active = hit-call score of the fitted dose curve at least 0.9, where 1 is the maximum; inconclusive = response in the unintended direction; inactive = score below 0.9.

Chains of the proteins cited; added tags and fusions are not shown. Lines headed by an entry give the natural chain unless they say otherwise; changes in a name come on top.
UniProt P22303: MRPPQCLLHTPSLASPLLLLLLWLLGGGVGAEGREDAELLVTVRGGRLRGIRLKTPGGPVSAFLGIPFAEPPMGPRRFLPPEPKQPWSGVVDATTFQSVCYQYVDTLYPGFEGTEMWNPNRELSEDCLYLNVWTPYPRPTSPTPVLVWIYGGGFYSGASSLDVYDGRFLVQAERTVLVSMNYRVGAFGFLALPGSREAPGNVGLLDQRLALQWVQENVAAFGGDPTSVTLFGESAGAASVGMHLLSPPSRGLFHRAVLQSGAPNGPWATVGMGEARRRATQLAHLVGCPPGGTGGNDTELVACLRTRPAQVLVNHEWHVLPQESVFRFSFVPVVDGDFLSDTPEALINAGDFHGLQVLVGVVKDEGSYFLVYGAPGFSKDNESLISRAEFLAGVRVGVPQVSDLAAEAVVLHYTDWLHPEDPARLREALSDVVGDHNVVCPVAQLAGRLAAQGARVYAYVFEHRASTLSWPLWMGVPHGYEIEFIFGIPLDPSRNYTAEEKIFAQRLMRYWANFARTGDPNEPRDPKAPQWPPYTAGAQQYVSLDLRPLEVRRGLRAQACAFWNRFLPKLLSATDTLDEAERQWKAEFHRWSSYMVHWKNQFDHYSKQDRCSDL
UniProt P15207: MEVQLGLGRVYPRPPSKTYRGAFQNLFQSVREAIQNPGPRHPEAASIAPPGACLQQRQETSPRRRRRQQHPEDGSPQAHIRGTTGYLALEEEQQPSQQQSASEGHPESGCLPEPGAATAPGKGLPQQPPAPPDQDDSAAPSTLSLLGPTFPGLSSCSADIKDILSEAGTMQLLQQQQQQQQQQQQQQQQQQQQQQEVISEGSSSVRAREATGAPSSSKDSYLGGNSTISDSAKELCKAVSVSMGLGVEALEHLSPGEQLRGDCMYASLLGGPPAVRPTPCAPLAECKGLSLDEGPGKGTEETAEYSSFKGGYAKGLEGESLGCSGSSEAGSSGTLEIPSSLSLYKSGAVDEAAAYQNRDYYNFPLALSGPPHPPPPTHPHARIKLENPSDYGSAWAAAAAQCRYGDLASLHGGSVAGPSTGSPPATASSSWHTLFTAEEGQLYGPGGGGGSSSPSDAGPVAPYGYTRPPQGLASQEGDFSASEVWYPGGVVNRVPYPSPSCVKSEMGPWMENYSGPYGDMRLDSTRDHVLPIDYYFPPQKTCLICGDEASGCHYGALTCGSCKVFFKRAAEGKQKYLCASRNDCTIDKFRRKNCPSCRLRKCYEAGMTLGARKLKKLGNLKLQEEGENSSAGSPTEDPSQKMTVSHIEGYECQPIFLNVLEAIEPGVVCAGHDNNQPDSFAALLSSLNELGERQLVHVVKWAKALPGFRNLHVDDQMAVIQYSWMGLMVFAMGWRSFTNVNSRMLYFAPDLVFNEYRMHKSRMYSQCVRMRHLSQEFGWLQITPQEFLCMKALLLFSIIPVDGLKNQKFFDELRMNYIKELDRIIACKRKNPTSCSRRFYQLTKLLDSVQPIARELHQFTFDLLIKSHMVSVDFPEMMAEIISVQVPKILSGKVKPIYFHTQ
UniProt Q01827, whole entry, looked up: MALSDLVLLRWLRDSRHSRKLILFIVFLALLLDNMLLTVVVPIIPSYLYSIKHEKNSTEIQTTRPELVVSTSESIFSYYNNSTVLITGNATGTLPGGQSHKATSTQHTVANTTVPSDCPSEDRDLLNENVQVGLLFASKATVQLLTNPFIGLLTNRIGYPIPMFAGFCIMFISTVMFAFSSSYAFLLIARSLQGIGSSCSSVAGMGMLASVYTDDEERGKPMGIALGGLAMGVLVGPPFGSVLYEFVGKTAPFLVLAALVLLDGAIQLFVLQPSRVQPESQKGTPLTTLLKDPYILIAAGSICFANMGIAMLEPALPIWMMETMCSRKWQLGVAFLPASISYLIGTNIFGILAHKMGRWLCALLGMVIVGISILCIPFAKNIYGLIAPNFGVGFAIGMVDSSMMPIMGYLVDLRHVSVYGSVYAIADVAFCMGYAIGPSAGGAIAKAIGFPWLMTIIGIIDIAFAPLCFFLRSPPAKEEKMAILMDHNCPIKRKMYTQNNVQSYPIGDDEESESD
UniProt P10275: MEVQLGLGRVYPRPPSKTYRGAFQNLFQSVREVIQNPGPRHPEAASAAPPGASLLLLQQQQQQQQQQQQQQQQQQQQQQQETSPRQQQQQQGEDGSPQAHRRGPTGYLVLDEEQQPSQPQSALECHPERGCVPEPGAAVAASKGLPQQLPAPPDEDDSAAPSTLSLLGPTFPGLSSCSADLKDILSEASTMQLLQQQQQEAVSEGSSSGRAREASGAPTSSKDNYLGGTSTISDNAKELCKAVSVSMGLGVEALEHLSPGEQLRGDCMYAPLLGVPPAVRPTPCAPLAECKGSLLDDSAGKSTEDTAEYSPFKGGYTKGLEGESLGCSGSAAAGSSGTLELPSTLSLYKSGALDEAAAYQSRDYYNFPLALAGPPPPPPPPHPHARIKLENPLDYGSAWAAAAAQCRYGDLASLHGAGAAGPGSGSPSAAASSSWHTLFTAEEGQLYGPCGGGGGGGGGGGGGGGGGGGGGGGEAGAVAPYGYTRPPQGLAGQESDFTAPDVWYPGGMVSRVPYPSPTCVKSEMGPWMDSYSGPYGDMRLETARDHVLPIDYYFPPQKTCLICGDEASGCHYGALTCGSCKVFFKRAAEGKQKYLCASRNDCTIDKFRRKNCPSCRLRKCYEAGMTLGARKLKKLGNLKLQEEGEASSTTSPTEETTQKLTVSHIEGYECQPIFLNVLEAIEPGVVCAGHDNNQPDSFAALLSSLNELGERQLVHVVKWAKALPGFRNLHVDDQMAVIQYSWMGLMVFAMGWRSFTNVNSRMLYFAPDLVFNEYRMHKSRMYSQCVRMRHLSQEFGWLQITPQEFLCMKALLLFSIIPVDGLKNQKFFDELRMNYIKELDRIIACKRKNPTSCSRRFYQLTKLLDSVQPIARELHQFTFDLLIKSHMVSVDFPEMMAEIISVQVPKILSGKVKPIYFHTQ
UniProt P10827: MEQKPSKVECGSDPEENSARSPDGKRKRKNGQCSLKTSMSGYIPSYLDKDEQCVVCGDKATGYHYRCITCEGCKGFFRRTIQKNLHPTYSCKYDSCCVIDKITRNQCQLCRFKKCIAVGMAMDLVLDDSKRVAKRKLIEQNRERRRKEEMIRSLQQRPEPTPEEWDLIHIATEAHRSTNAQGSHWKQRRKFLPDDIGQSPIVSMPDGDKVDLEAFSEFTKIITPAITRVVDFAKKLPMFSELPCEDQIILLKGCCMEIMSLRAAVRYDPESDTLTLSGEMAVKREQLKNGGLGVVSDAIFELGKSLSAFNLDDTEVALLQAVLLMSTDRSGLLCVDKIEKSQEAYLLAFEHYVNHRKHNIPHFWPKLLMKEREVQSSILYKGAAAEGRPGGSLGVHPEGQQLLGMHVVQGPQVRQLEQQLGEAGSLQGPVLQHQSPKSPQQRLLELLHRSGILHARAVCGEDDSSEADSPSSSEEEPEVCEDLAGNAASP
UniProt P10828: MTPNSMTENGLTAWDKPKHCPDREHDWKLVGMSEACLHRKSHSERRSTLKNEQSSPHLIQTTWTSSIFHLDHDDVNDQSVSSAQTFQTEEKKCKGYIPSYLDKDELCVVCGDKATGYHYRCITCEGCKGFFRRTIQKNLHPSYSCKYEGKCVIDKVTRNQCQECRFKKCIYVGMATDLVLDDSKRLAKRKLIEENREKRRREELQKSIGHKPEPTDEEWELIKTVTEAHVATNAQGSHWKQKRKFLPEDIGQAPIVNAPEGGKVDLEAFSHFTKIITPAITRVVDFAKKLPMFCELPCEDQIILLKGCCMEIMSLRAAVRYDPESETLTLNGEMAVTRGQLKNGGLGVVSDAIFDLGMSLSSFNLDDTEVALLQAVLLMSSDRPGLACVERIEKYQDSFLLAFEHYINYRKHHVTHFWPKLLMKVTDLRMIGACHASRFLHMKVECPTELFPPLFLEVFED

Results on six molecules are retold here after PubChem BioAssay (EPA / NIEHS).

The target of experiment [1] is human Acetylcholinesterase (AChE), ACHE (gene 43) (UniProt P22303). The experiment in a line: NVS_ENZ_hAChE: NovaScreen (NVS) Enzymatic Assay for human Acetylcholinesterase (AChE) (AID 2283129). Put shortly: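 Actives from a duplicate single-point screen (25 uM) were followed up in concentration series. Enzyme activity read by absorbance (colorimetric) 0.33 hour after dosing, cell-free, normalized to DMSO, with loss of signal scored.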

Experiment [2] concerns the target rat Androgen Receptor (AR), Ar (gene 24208) (UniProt P15207). The experiment in a line: NVS_NR_rAR: NovaScreen (NVS) Nuclear Receptor Binding Assay for rat Androgen Receptor (AR) (AID 2283366).
Experiment [3] deals with Norway rat Vesicular Monoamine Transporter (VMAT2), neurotransmitter transporter, Slc18a2 (gene 25549) (UniProt Q01827). The experiment in a line: NVS_TR_rVMAT2: NovaScreen (NVS) Transporter Assay for Norway rat Vesicular Monoamine Transporter (VMAT2), neurotransmitter transporter (AID 2283376).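 Note: actives lower the bound radioligand signal below the DMSO level.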 Put shortly: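 Filter-based scintillation counting of radioligand bound to rat forebrain-derived VMAT2 protein, cell-free, 1 h post-dose. Signal loss relative to DMSO control scored; single-concentration duplicate screen (25 uM) followed by concentration-response testing of actives.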

For a further experiment, the target named is AR (gene 367) (UniProt P10275). The experiment in a line: ACEA_AR_agonist_80hr: ACEA Biosciences xCELLigence Real-Time Cell Analysis on Androgen Receptor Agonism for Proliferation (AID 2283783).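 Note: hits increase impedance growth signal above DMSO baseline.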 Put shortly: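 Impedance (RT-CES) growth signal at 80 h post-dose; 22Rv1 cells, 8-pt 1:4 series, top 100 uM final, DMSO ≤0.5%; duplicate plates; gain-of-signal fit relative to DMSO baseline.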

In experiment [4] the target is Thyroid hormone receptor alpha (Rattus norvegicus) + Thyroid hormone receptor beta (Rattus norvegicus) (UniProt P18113+P63059). The experiment in a line: TOX21_TR_LUC_GH3_Agonist_Followup: Tox21 GH3 Thyroid Hormone Receptor Agonism Luciferase Follow-Up Assay (AID 2283939). Put shortly: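 Agonist-mode confirmatory run: 15 concentrations (5 nM to 92 uM final) on GH3 rat pituitary cells, 24 h at 37C/5% CO2, T3 as positive control. Luminescence read with ONE-Glo after 30 min.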

In another experiment the target is THRA (gene 7067) (UniProt P10827). The experiment in a line: TOX21_TRA_COA_Agonist_Followup_ratio: Tox21 Thyroid Hormone Receptor alpha Agonism through Coactivator Recruitment Follow-Up Assay, Ratio (AID 2283948; active = hit-call score of the fitted dose curve at least 0.9, where 1 is the maximum; inactive = score below 0.9). Put shortly:
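Read-out is the 520/495 nm emission ratio (ex 340 nm), scaled between DMSO-only wells as 0% and T3 wells as 100%. It reflects fluorescein-SRC-2 peptide recruitment to GST-TRα LBD detected via terbium anti-GST antibody.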

Experiment [5] addresses THRB (gene 7068) (UniProt P10828). The experiment in a line: TOX21_TRB_BLA_Agonist_Followup_ratio: Tox21 Thyroid Hormone Receptor beta Agonism Beta-lactamase (BLA) Follow-Up Assay, Ratio (AID 2283954). Put shortly: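 Agonist mode: compounds (11-point, triplicate) incubated 18 h with HEK293T cells carrying GAL4-DBD/human TRβ-LBD and UAS-β-lactamase. Blue/green (460/530 nm) FRET ratio read after 2 h CCF4-AM loading; CellTiter-Glo viability run in the same plates.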

For experiment [6] the target is unchanged. The experiment in a line: TOX21_TRB_COA_Agonist_Followup_ratio: Tox21 Thyroid Hormone Receptor beta Agonism through Coactivator Recruitment Follow-Up Assay, Ratio (AID 2283963; active = hit-call score of the fitted dose curve at least 0.9, where 1 is the maximum; inactive = score below 0.9). Put shortly:
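First, the GST-fused TRβ ligand-binding domain (5.0 nM) was incubated with test compound in 0.10% BSA. Next, fluorescein-tagged SRC-2 peptide (200 nM) and terbium anti-GST antibody (2 nM) were added. Finally, TR-FRET emission ratios were normalized against DMSO and T3 controls.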

Turning to `c1ccc(C[n+]2cccc3ccccc32)cc1`, in experiment [1], the AC50 (commonly the concentration giving half of the maximal activity seen) is active: 14100 nM.

Consider `CNC(=O)ON=CC(C)(C)SC`, for which the AC50 in experiment [1] was active: 25000 nM.

On to `O=C1C2(Cl)C3(Cl)C4(Cl)C(Cl)(Cl)C5(Cl)C3(Cl)C1(Cl)C5(Cl)C24Cl` (centres undefined), for which the AC50 in experiment [2] is active: 2.56 µM and active: 622 nM.

Regarding `COC(=O)[C@H]1[C@H]2C[C@@H]3c4[nH]c5cc(OC)ccc5c4CCN3C[C@H]2C[C@@H](OC(=O)c2cc(OC)c(OC)c(OC)c2)[C@@H]1OC`, the AC50 in experiment [3] is active: 1180 nM.

`Clc1ccc(COC(Cn2ccnc2)c2ccc(Cl)cc2Cl)cc1` (centres undefined): the half-maximal activity concentration (AC50) in the experiment with AR (gene 367) is active: 172 nM.

`N[C@@H](Cc1ccc(Oc2cc(I)c(O)c(I)c2)c(I)c1)C(=O)O`: the AC50 in experiment [4] was active: 423 nM; with THRA (gene 7067) it was active: 835 nM; with THRB (gene 7068) [5], active: 739 nM; with THRB (gene 7068) [6] it was active: 1500 nM.
